This experiment deals with soluble human BACE1 catalytic domain (Homo sapiens (Human), UniProt P56817). Briefly: BACE1 HTRF FRET Assay. The experiment is classed as biochemical. The conditions noted are these: read-out: BACE1 Ki; Ki calculated from IC50 using the Cheng-Prusoff equation.

Chains of the proteins cited; added tags and fusions are not shown. Residues count along the entry.
UniProt P56817, 75-416 limits assumed: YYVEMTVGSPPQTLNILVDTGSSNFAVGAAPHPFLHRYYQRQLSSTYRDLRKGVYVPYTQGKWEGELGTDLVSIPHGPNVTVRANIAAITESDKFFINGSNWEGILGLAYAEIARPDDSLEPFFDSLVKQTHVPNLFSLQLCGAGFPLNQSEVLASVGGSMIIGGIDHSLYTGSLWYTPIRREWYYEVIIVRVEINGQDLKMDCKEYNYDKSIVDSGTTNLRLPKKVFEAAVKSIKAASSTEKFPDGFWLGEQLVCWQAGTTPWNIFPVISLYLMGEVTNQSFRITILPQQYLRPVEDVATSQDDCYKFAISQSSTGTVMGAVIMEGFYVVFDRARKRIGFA

The Ki is a dissociation constant, usually derived from enzyme kinetics or from competition with a known ligand. On to `C[C@@]1(c2cc(Nc3noc4cc(Cl)cnc34)ccc2F)CS(=O)(=O)[C@@]2(CCOC2)C(=N)N1`, for which the Ki is 5.1 nM.
For `C[C@@]1(c2ccccc2F)CS(=O)(=O)C2(CCCC2)C(=N)N1` the value was 727 nM; for `COc1cnc(C(=O)Nc2ccc(F)c([C@]3(C)CS(=O)(=O)C4(COC4)C(=N)N3)c2)cn1`, 24.1 nM.
As for `COc1cccc2cc(-c3ccc(F)c([C@]4(C)CS(=O)(=O)C5(CCCC5)C(=N)N4)c3)[nH]c12`, the figure is 930 nM.

The values are drawn from patent US9181236B2, “2-spiro-substituted iminothiazines and their mono-and dioxides as bace inhibitors, compositions and their use” (Merck Sharp & Dohme Corp., priority 2011, dated 2015).
